Legend:
[1] = in vivo; conditions: rat, po
[2] = in vivo; conditions: mouse, po

What does the source list for CC(C(=O)O)c1ccc(Oc2nccs2)cc1 (centres unmarked) [Example 48-156, 2-[4-(2-thiazolyloxy)phenyl]propionic acid]?
LD50 at 72 h [1]: 154 mg/kg; LD50 at 72 h [2]: 1800 mg/kg

Source: patent US4025528A, “Thiazole derivatives of benzoic and phenylalkanoic acids” (Shionogi & Co., Ltd., priority 1973, dated 1977)
